Reference: US8877738B2, “Antipathogenic peptides” (priority 2009, dated 2014)

Experiments:
[1] = test system: HCMV clinical isolate AL1; conditions: HELFs, M.O.I. 1, 6 days p.i.
Method: (§1) FIGS. 4A and 4B. […] HUVECs were infected with the endotheliotropic and clinical HCMV isolate VR1814 (FIG. 4B) at a M.O.I of 1. The extent of AD169 or AU replication was then assessed by titrating the infectivity of supernatants of HELF suspensions by standard plaque assay. The extent of VR1814 replication was measured by titrating the infectivity of supernatants of cell suspensions by the indirect immunoperoxidase staining procedure on HUVECs using a monoclonal antibody (mAb) reactive to the HCMV IE proteins. Plaques were microscopically counted, and the mean plaque counts for each peptide concentration were expressed as a percentage of the mean count of the controls. The number of plaques was plotted as a function of drug concentration, and the concentration producing a 50% reduction in plaque formation (IC50) was determined.
(§2) After 1 hour, they were infected with HCMV AD169 or HCMV AL1 at a M.O.I. of 1 PFU/cell. […] The cells and supernatants from the antiviral assay were then harvested and disrupted by sonication. The extent of virus replication was assessed by titrating the infectivity of supernatants of cell suspensions by standard plaque assay on HELFs.

[2] = test system: HCMV laboratory strain AD169; conditions: HELFs, M.O.I. 1, treated 1 h before and during infection, 6 days p.i.
Method: as §1, §2

[3] = test system: HCMV VR1814; conditions: HUVECs, M.O.I. 1, 6 days p.i.
Method: as §1
The cells and supernatants from the antiviral assay were then harvested and disrupted by sonication.

[4] = test system: HPV-16 PsV; conditions: HPV-16-SEAP PsV preincubated with peptide, 293TT cells, 72 h post-infection

CC[C@H](C)[C@H](NC(=O)[C@H](CCCNC(=N)N)NC(=O)[C@@H](NC(=O)[C@H](CCCNC(=N)N)NC(=O)[C@H](CC(C)C)NC(=O)[C@H](CO)NC(=O)[C@H](C)N)C(C)C)C(=O)N[C@@H](CCCCN)C(=O)N[C@@H](CCCCN)C(=O)NCCCC[C@H](NC(=O)[C@H](CCCCN)NC(=O)[C@H](CCCCN)NC(=O)[C@@H](NC(=O)[C@H](CCCNC(=N)N)NC(=O)[C@@H](NC(=O)[C@H](CCCNC(=N)N)NC(=O)[C@H](CC(C)C)NC(=O)[C@H](CO)NC(=O)[C@H](C)N)C(C)C)[C@@H](C)CC)C(=O)NCCCC[C@H](NC(=O)[C@H](CCCCNC(=O)[C@H](CCCCN)NC(=O)[C@H](CCCCN)NC(=O)[C@@H](NC(=O)[C@H](CCCNC(=N)N)NC(=O)[C@@H](NC(=O)[C@H](CCCNC(=N)N)NC(=O)[C@H](CC(C)C)NC(=O)[C@H](CO)NC(=O)[C@H](C)N)C(C)C)[C@@H](C)CC)NC(=O)[C@H](CCCCN)NC(=O)[C@H](CCCCN)NC(=O)[C@@H](NC(=O)[C@H](CCCNC(=N)N)NC(=O)[C@@H](NC(=O)[C@H](CCCNC(=N)N)NC(=O)[C@H](CC(C)C)NC(=O)[C@H](CO)NC(=O)[C@H](C)N)C(C)C)[C@@H](C)CC)C(=O)NCCC(N)=O [SB105-A10, (ASLRVRIKK)4-Lys2-Lys-β-Ala]
IC50, HCMV clinical isolate AL1 replication [1]: 1.2 µg/mL (≈ 0.256 µM)
50% inhibition of HCMV AD169 replication (IC50) [2]: 1.36 µg/mL
IC50, endotheliotropic HCMV VR1814 replication [3]: 1.3 µg/mL (≈ 0.278 µM)
IC50 against HPV-16 PsV [4]: 2.8 µg/mL (≈ 0.598 µM)

Converted amounts (≈) assume the structure as drawn.
